This experiment deals with soluble fibrin fragment DD(E). Kind of experiment: DD. To be noted: read-out: Ki, inhibition of binding of a fluorescent peptide to DD(E); TBS·Ca; DD(E) 1.5 μM, Fl 1 μM; uncertainties estimated at ±10%.

Molecules are shown by their SMILES.

The Ki is a measure of affinity in units of concentration, obtained from inhibition or displacement. With `CC(C)C[C@H](NC(=O)CN(CCNC(=O)C(CN(CCN(CC(=O)O)CC(=O)O)CC(=O)O)N(CC(=O)O)CC(=O)O)CCNC(=O)C(CN(CCN(CC(=O)O)CC(=O)O)CC(=O)O)N(CC(=O)O)CC(=O)O)C(=O)N1CCC[C@H]1C(=O)N[C@H]1CSSC[C@@H](C(=O)N[C@@H](Cc2ccc(-c3ccccc3)cc2)C(=O)N[C@@H](CC(=O)O)C(=O)NCc2cccc(CNC(=O)CN(CCNC(=O)C(CN(CCN(CC(=O)O)CC(=O)O)CC(=O)O)N(CC(=O)O)CC(=O)O)CCNC(=O)C(CN(CCN(CC(=O)O)CC(=O)O)CC(=O)O)N(CC(=O)O)CC(=O)O)c2)NC(=O)[C@H]([C@@H](C)O)NC(=O)CNC(=O)[C@H](Cc2ccc(O)cc2)NC(=O)[C@H](Cc2ccc(O)cc2)NC(=O)[C@H](CC(=O)O)NC1=O` (stereo partly shown) [Compound 5], the Ki was 4.7 µM.

Values taken from article PMC2880861 (New journal of chemistry = Nouveau journal de chimie, 2010).
